The structures appear in SMILES notation. This is a selection; strong and weak results do not stand in their true shares. Calls of active or inactive are those of the source.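 The calls were made as follows: active = cell killing above 50% in the first pass at 4 µM, then a duplicate retest at 5 µM averaging 50% or more; inactive = the rest.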

A short description of this experiment: PPC-1 cell viability loss under TRAIL – PPC-1 cells, ATPLite luminescence, uHTS, TRAIL potentiator project, primary screen (AID 1443).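 Also: plate controls were cells with TRAIL plus DMSO for no effect and medium-only wells lacking cells for full effect.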 Particulars: PPC-1 cells + TRAIL, at 5 µM, hits give high values. On the technique in general: Cellular ATP, detected with luciferase, serves as a proxy for viable cell number.
Consider `C[N+]1=C2C=CC=CC=C2SC12C([N+](=O)[O-])=CC([N+](=O)[O-])=C[C-]2[N+](=O)[O-]` (stereo unspecified), for which the cell killing (% activity) was inactive: 20.1%.

For the origin of these results see PubChem BioAssay AID1443 (Sanford-Burnham Center for Chemical Genomics, 2008).
